Values of other authors, collected in PMC3694611 (Journal of natural products, 2012).

Target: T1, cathepsin E (Homo sapiens, UniProt P14091)
T1 sequence (P14091 54-396): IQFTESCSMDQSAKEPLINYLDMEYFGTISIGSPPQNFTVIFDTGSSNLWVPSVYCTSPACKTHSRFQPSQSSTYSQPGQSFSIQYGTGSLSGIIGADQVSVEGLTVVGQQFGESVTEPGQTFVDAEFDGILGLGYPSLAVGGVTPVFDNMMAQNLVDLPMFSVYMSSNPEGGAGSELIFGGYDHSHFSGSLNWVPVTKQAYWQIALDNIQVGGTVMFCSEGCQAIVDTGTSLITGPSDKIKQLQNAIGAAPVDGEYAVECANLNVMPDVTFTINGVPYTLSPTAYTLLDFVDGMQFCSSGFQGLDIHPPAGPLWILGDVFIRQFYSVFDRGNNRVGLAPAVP
Conditions: in words; ref [1c]

## grassystatin A
  selective inhibition of the protease cathepsin E: selective inhibition
